Reference: patent publication US9783503B2, “Crystalline forms of an estrogen receptor modulator” (Genentech, Inc., priority 2014, dated 2017)

Experiment: Thermodynamic aqueous solubility
Conditions: for Solubility: aqueous

Substance: Choline
- aqueous solubility relative to the other salts: higher aqueous solubility
- Solubility (crystalline salt prepared from Dioxane (5 Vols)): 8.57 mg/mL
- Solubility (crystalline salt prepared from Ethyl Acetate (10 Vols)): 9.32 mg/mL
- Solubility (crystalline salt prepared from MeCN (300 Vols)): 9.21 mg/mL
